The source of these data is patent US6538106B1, “Compositions and methods for treating infections using analogues of indolicidin” (priority 1996, dated 2003).

Where a name gives a salt, the structure may show the parent alone.

This series can be described thus: Acute single dose toxicity in isotonic saline (ip, iv, sc). Particulars: 5 days. Type of series: in vivo, Swiss CD1 mice. How it is done: In vivo toxicity of an analogue is measured through administration of a range of doses to animals, typically mice, by a route defined in part by the intended clinical use. […]. Analogues less toxic than indolicidin are preferred.
The acute, single dose toxicity of various indolicidin analogues is tested in Swiss CD1 mice using various routes of administration. In order to determine the inherent toxicities of the peptide analogues in the absence of any formulation/delivery vehicle effects, the peptides are all administered in isotonic saline with the final pH between 6 and 7.
Intraperitoneal route. […]. […] The LD50 values are calculated using the method of Reed and Muench (J. of Amer. Hyg. 27: 493-497, 1938).
Intravenous route. […]. […].
Subcutaneous route. The toxicity of MBI 11CN is also determined after subcutaneous (SC) administration. […]. After administration, the mice are observed for a period of 5 days. None of the animals died at any of the dose levels within the 5 day observation period. […]. […] These symptoms are reversible, disappearing in all mice by the second day of observations.

`CC[C@H](C)[C@H](N)C(=O)N[C@@H](CC(C)C)C(=O)N[C@@H](CCCCN)C(=O)N[C@@H](CCCCN)C(=O)N[C@@H](Cc1c[nH]c2ccccc12)C(=O)N1CCC[C@H]1C(=O)N[C@@H](Cc1c[nH]c2ccccc12)C(=O)N[C@@H](Cc1c[nH]c2ccccc12)C(=O)N1CCC[C@H]1C(=O)N[C@@H](Cc1c[nH]c2ccccc12)C(=O)N[C@@H](CCCNC(=N)N)C(=O)N[C@@H](CCCNC(=N)N)C(=O)N[C@@H](CCCCN)C(N)=O` [MBI 11CN HCl, I L K K W P W W P W R R K] had an LD50 of 5.8 mg/kg and an MTD of less than 4 mg/kg.

Broadly, the LD50 is the dose at which mortality reaches 50%. A lower LD50 goes with a more toxic substance.
